# According to ChEMBL document CHEMBL1145308 (Bioorg Med Chem Lett, 2006):
# Chains of the proteins cited; added tags and fusions are not shown. Lines headed by an entry give the natural chain unless they say otherwise; changes in a name come on top.
# UniProt P35372, whole entry, looked up: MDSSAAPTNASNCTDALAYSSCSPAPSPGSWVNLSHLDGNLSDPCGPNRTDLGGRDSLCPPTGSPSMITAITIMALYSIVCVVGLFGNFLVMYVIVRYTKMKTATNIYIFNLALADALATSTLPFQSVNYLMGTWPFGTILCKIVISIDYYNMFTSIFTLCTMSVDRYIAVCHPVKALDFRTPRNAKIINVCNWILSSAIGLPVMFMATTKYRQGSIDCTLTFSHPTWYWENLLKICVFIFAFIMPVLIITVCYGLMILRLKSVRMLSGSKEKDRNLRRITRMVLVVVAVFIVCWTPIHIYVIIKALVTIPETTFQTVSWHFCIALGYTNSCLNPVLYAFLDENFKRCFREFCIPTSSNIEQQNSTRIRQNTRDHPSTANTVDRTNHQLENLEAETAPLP
# UniProt P41146: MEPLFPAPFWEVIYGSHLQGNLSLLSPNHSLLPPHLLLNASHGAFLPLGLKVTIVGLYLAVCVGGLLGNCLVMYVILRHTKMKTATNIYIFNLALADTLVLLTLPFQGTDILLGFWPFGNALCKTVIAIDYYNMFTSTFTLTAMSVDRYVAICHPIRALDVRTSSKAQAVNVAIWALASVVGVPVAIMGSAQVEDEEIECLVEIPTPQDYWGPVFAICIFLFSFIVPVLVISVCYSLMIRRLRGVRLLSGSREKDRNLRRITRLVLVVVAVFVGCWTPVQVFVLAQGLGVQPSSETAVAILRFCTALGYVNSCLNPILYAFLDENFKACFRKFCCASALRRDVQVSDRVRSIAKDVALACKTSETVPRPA
# Several values for one entry are separate records, joined by “and”; a condition that tells them apart may be missing. Identical values can stand only once.
# Experiments:
# Mu-type opioid receptor = Mu-type opioid receptor (Homo sapiens, UniProt P35372); assay: Displacement of [3H]naloxone from mu opioid receptor expressed in BHK cells
# Nociceptin receptor = Nociceptin receptor (Homo sapiens, UniProt P41146); assay: Displacement of [3H]NOP from human NOP receptor expressed in HEK293 cells
SMILES,IC50 (Mu-type opioid receptor),IC50 (Nociceptin receptor)
Cc1ccc(C2(N3CCC4(CC3)C(=O)NCC4c3ccccc3)CCCCC2)cc1 (stereo not drawn),9.12 µM and 11.9 µM,> 10 µM
Cc1ccccc1C1(N2CCC3(CC2)C(=O)NCC3c2ccc(F)cc2)CCCCC1 (racemic),3.85 µM,> 10 µM
O=C1NCC(c2ccccc2)C12CCN(C1(c3cccc(F)c3)CCCCC1)CC2 (stereo not drawn),8.04 µM and 13.5 µM,> 10 µM
CCCC1CNC(=O)C12CCN(C1(c3ccc(F)cc3)CCCCC1)CC2 (racemic),3.03 µM,
CCCC1CNC(=O)C12CCN(C1(c3ccccc3)CCCCC1)CC2 (stereo not drawn),2.76 µM and 2.73 µM and 1.87 µM,
O=C1NCC(c2ccccc2)C12CCN(C1(c3ccc(Cl)cc3)CCCCC1)CC2 (stereo not drawn),19.8 µM and 3.6 µM,> 10 µM
O=C1NCC(c2ccc(F)cc2)C12CCN(C1(c3ccc(F)cc3)CCCCC1)CC2 (stereo not drawn),7.8 µM and > 10 µM and 7.4 µM,> 10 µM
O=C1NCC(c2ccccc2)C12CCN(C1(c3ccccc3)CCCCC1)CC2 (stereo not drawn),7.64 µM and 5.5 µM,6.15 µM and > 10 µM
Cc1cccc(C2(N3CCC4(CC3)C(=O)NCC4c3ccc(F)cc3)CCCCC2)c1 (stereo not drawn),7.83 µM and 24.8 µM,> 10 µM
O=C1NCC(c2ccc(F)cc2)C12CCN(C1(c3cccc(F)c3)CCCCC1)CC2 (racemic),7.18 µM,> 10 µM
